Ab-14 light chain CDR variants: yeast mating affinities

The target is the same throughout: PDVDLGDISGINAS, from the HR2 region of SARS-CoV-2 spike.

Parent: Ab-14, a human scFv built as VH, a (GGGGS)3 linker, VL. Only the CDRs of the light chain vary.
VH: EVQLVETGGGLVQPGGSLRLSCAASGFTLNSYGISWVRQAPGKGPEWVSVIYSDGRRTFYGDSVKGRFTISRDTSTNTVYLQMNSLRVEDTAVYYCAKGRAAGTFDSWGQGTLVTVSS
VL: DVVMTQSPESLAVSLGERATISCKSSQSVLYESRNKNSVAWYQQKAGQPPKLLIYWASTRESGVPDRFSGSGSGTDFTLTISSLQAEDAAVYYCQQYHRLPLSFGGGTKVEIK

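Variants in AAYL50 differ from the parent at up to three CDR positions; double and triple changes were sampled at random. The scFvs were displayed on barcoded MATa yeast, the peptide on MATalpha yeast. Pairs that bind mate more often; barcode pairs of the diploids are counted by sequencing. Each replicate has its own calibration line, from reference interactions of the BCL2 family. The assay was run in three technical replicates.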

Substitutions are numbered in sequence along the VL above, starting at 1 (not Kabat).
Affinities are written as log10 Kd with Kd in nM; a lower number is a better binder.
Averages over replicates are reported, and they cover detected replicates only.
Where no diploid with the target was found in any replicate, the entry reads "not detected": below detection, most likely a poor binder, though not proof of it.
Nonspecific signal, from three strains lacking the peptide, appeared in 18% of pairings of library AAYL50, centred on 4.19 (5% of these signals below 2.99); values are not corrected for it.
Parent in this assay: reference entry 0.65, copy in this library 1.68.

changes	mean log10 Kd (nM)	detected
V29T/A40K/S58L	not detected	0/3
Q27V/H98D	1.09	3/3
K24F/K36S/W56C	1.69	3/3
K24F/Y97I/H98T	1.37	3/3
Y31F/E32Y/S33R	not detected	0/3
V29E/Y31L/L100Q	4.34	3/3
Q27I/Q96N/P101R	not detected	0/3
A40C/L100T	4.59	3/3
S26N/E32F/L100M	not detected	0/3
S26A/S28A/N37H	1.99	3/3
S26I/S33G/L100W	not detected	0/3
S28Q/R34D/N35T	1.25	3/3
Q27G/A57N	4.01	2/3
R34S/N35P/L100K	not detected	0/3
S28G/V29F/L102F	not detected	0/3
A57E/Q96S/R99N	3.08	1/3
S26T/Q27V/V39W	3.76	1/3
E32R/Q96K/P101K	4.60	1/3
E61D/S62K/R99I	1.06	3/3
Y31A/S62C	0.93	3/3
S28C/T59M/L102A	3.14	3/3
V29A/A57N/S103W	not detected	0/3
Y31I/W56K/L100R	5.14	1/3
Y31R/N35R/T59S	4.27	1/3
S26P/K36T	1.89	3/3
V29Q/E32S/R60Y	not detected	0/3
K24E/L30M/S38M	3.31	1/3
V39P/S62L/L100K	4.78	3/3
N37G/L102E	1.01	3/3
S26I/K36Y	2.28	2/3
Y31K/S33L/Y97H	0.73	3/3
Q27V/A40V/E61W	3.34	1/3
W56H/T59P	3.64	1/3
R34D/S38Q/R99F	3.47	2/3
S33K/Q95W/R99S	1.47	3/3
E32V/N35R/N37C	4.63	1/3
S25R/N37Y/T59G	4.98	1/3
S26Y/R34W/Q96C	not detected	0/3
Y97M/R99Q	4.91	2/3
S38C/T59S	3.22	2/3
T59Y/R99S	not detected	0/3
L30Q/S33N/L100A	0.81	3/3
S25M/Y31I/L100C	not detected	0/3
N35C/K36Q/R60D	5.41	1/3
V29Y/S38M/E61G	not detected	0/3
Q27A/Y97K/S103F	not detected	0/3
S38W/H98L/L100R	not detected	0/3
S33R/R34N/L100E	1.02	3/3
H98M/L100D	not detected	0/3
Y31C/E32I/T59C	4.54	2/3
T59K/S62H/Q96L	4.43	3/3
Y31I/N37E/E61H	not detected	0/3
A57G/S58R/Q95N	3.04	2/3
S38W/Q95H	not detected	0/3
Q27E/S62Y/L100N	not detected	0/3
Q27N/E32I/S62F	5.24	2/3
V29T/W56S/S103L	-0.36	3/3
A40I/R60A/Q95K	4.12	1/3
A57E/S58P/S103Q	5.03	2/3

For reference, 8 entries of the list once more:

| changes | mean log10 Kd (nM) | detected |
|---|---|---|
| S26P/K36T | 1.89 | 3/3 |
| V29Q/E32S/R60Y | not detected | 0/3 |
| S33R/R34N/L100E | 1.02 | 3/3 |
| S26T/Q27V/V39W | 3.76 | 1/3 |
| Q27N/E32I/S62F | 5.24 | 2/3 |
| S26I/K36Y | 2.28 | 2/3 |
| A40C/L100T | 4.59 | 3/3 |
| S28C/T59M/L102A | 3.14 | 3/3 |

Source: Engelhart et al. 2022 (doi:10.1038/s41597-022-01779-4), MIT Lincoln Laboratory and A-Alpha Bio; data file from the FLAb repository.